This passage reports IC50 results from US20060079453A1, “Hla binding peptides and their uses” (priority 2002, published 2006).

Targets include HLA-B*4002 (Homo sapiens, UniProt P01889, A65T/A93T/A95T/D138N/D201E/D98Y/E176V/E204Q/E69K/K202T/N87E/Q56L/Q94N/R180L/S48T/Y33H/Y91S); HLA-B*4402 (Homo sapiens, UniProt P01889, A223V/A65T/A93T/A95T/D201E/D98Y/E176V/E187L/E204Q/E69K/G107R/H137Y/K202T/L105A/L119I/N104T/N87E/Q56L/Q94N/R106L/R155S/R180D/S101N/S121R/S35A/S48T/T118I/V36M/W191S/Y140D/Y91S); HLA-B*4001 (Homo sapiens, UniProt P01889, A65T/A93T/A95T/D138N/D98Y/E176V/E69K/N87E/Q56L/Q94N/R180L/S121R/S35A/S48T/T167S/V36M/W171L/Y33H/Y91S).

What all share (assay): biochemical
Type in all cases: binding

Where two headings read alike, the source gives them in different places.

Molecule `CC(C)C[C@H](NC(=O)[C@H](CC(N)=O)NC(=O)[C@H](CCC(=O)O)NC(=O)[C@H](C)N)C(=O)N[C@@H](Cc1c[nH]c2ccccc12)C(=O)N[C@H](C(=O)N[C@H](C(=O)N1CCC[C@H]1C(=O)N[C@@H](Cc1ccc(O)cc1)C(=O)O)[C@@H](C)O)C(C)C` had an IC50 against HLA-B*4002 of 189 nM. Take `CC(C)C[C@H](NC(=O)[C@H](CC(N)=O)NC(=O)[C@H](CCC(=O)O)NC(=O)[C@H](C)N)C(=O)N[C@@H](Cc1c[nH]c2ccccc12)C(=O)N[C@H](C(=O)N[C@H](C(=O)N[C@H](C(=O)N[C@@H](CC(N)=O)C(=O)O)C(C)C)[C@@H](C)O)C(C)C`: the IC50 at HLA-B*4002 amounted to 481 nM. As to `CC(C)C[C@H](NC(=O)CNC(=O)[C@H](CC(C)C)NC(=O)[C@H](Cc1ccc(O)cc1)NC(=O)[C@H](CCC(=O)O)NC(=O)[C@@H]1CCCN1C(=O)[C@H](CC(N)=O)NC(=O)[C@H](CCC(=O)O)NC(=O)[C@H](C)N)C(=O)O`, the IC50 against HLA-B*4402 (B*4402) was found to be 44 nM; on HLA-B*4001 (B*4001), 81 nM. `CC(C)[C@H](NC(=O)CNC(=O)[C@H](CCC(=O)O)NC(=O)[C@H](C)NC(=O)[C@H](C)NC(=O)[C@@H]1CCCN1C(=O)[C@H](CCC(=O)O)NC(=O)[C@H](C)N)C(=O)NCC(=O)N[C@@H](C)C(=O)O` registered an IC50 against HLA-B*4002 of 1660 nM. Consider `CSCC[C@H](NC(=O)[C@H](CCCNC(=N)N)NC(=O)[C@@H]1CCCN1C(=O)[C@H](C)NC(=O)[C@H](CCC(=O)O)NC(=O)[C@@H](N)CC(=O)O)C(=O)N1CCC[C@H]1C(=O)N[C@@H](CCC(=O)O)C(=O)N[C@@H](C)C(=O)O`, for which the IC50 at HLA-B*4001 (B*4001) worked out at 9090 nM. Same read-out and setting: next, `CC[C@H](C)[C@H](NC(=O)[C@H](CCCCN)NC(=O)[C@H](CCC(=O)O)NC(=O)[C@@H](N)CCC(=O)O)C(=O)N[C@@H](Cc1c[nH]c2ccccc12)C(=O)N[C@@H](CCC(=O)O)C(=O)N[C@@H](CCC(=O)O)C(=O)N[C@@H](CC(C)C)C(=O)N[C@@H](CO)C(=O)N[C@H](C(=O)N[C@@H](CC(C)C)C(=O)O)C(C)C`: 152 nM; `CSCC[C@H](NC(=O)[C@H](CO)NC(=O)[C@H](CC(C)C)NC(=O)[C@H](CCC(=O)O)NC(=O)[C@@H](N)CCC(=O)O)C(=O)N[C@@H](CC(C)C)C(=O)N[C@@H](CCC(=O)O)C(=O)N[C@H](C(=O)N[C@@H](Cc1ccccc1)C(=O)N[C@@H](CCC(=O)O)C(=O)NCC(=O)O)C(C)C`: 24100 nM.

As to `CC(C)C[C@H](NC(=O)[C@H](CCC(=O)O)NC(=O)[C@@H](N)CCC(=O)O)C(=O)N[C@@H](CO)C(=O)N[C@H](C(=O)N[C@@H](CC(C)C)C(=O)N[C@@H](CCC(=O)O)C(=O)N[C@H](C(=O)N[C@@H](Cc1ccccc1)C(=O)O)C(C)C)C(C)C`, the IC50 turned out to be 61 nM at HLA-B*4402 (B*4402) and 10200 nM against HLA-B*4001 (B*4001).

`CC(C)C[C@H](NC(=O)[C@H](CCC(=O)O)NC(=O)CN)C(=O)N[C@@H](CO)C(=O)N[C@@H](Cc1ccc(O)cc1)C(=O)N[C@@H](CC(C)C)C(=O)N[C@@H](CC(N)=O)C(=O)N[C@H](C(=O)O)C(C)C` yielded an IC50 against HLA-B*4001 (B*4001) of 4860 nM.

Consider `CC[C@H](C)[C@H](NC(=O)[C@@H]1CCCN1C(=O)[C@@H]1CCCN1C(=O)[C@H](CCC(N)=O)NC(=O)[C@@H]1CCCN1C(=O)[C@H](CC(C)C)NC(=O)[C@H](CCCNC(=N)N)NC(=O)[C@H](CCC(=O)O)NC(=O)CN)C(=O)N[C@@H](CS)C(=O)N[C@H](C(=O)O)[C@@H](C)O`, for which the IC50 against HLA-B*4001 (B*4001) was determined as 24300 nM. For the molecule `CC[C@H](C)[C@H](NC(=O)[C@H](CCC(=O)O)NC(=O)[C@@H](N)CCCCN)C(=O)N[C@@H](CC(C)C)C(=O)N[C@@H](CC(=O)O)C(=O)N[C@@H](CCC(=O)O)C(=O)N[C@@H](C)C(=O)N[C@@H](Cc1ccc(O)cc1)C(=O)N[C@H](C(=O)O)C(C)C`, the IC50 against HLA-B*4002 (B*4002) was 146 nM.

As for `CC(C)C[C@H](NC(=O)[C@H](CC(N)=O)NC(=O)[C@H](Cc1c[nH]cn1)NC(=O)[C@@H](NC(=O)[C@H](CC(C)C)NC(=O)[C@H](CC(C)C)NC(=O)[C@H](CC(C)C)NC(=O)[C@@H](NC(=O)[C@H](CCC(=O)O)NC(=O)[C@@H](N)CCCCN)C(C)C)C(C)C)C(=O)O`, the IC50 at HLA-B*4001 (B*4001) stood at 3.1 nM. As to `CC[C@H](C)[C@H](NC(=O)[C@H](CO)NC(=O)[C@H](CCC(=O)O)NC(=O)[C@@H](N)CC(C)C)C(=O)N[C@@H](CC(C)C)C(=O)N[C@@H](CCCNC(=N)N)C(=O)N[C@@H](CCCNC(=N)N)C(=O)N[C@@H](CCCNC(=N)N)C(=O)N[C@@H](Cc1ccccc1)C(=O)O`, the figures for the IC50 at HLA-B*4402 (B*4402) and against HLA-B*4001 (B*4001) were 4.7 nM and over 11900 nM, respectively. Molecule `CSCC[C@H](N)C(=O)N[C@@H](CCC(=O)O)C(=O)N[C@@H](Cc1c[nH]cn1)C(=O)N[C@@H](CC(C)C)C(=O)N[C@@H](CCCNC(=N)N)C(=O)N[C@@H](CCC(=O)O)C(=O)N[C@H](C(=O)N[C@@H](CCCNC(=N)N)C(=O)N[C@@H](C)C(=O)O)C(C)C` registered an IC50 against HLA-B*4001 (B*4001) of 44800 nM. On the same count and under the same terms, next, `CSCC[C@H](N)C(=O)N[C@@H](CCC(=O)O)C(=O)N[C@@H](Cc1c[nH]cn1)C(=O)N[C@@H](CC(C)C)C(=O)N[C@@H](CCCNC(=N)N)C(=O)N[C@@H](CCC(=O)O)C(=O)N[C@H](C(=O)N[C@@H](CCCNC(=N)N)C(=O)N[C@@H](C)C(=O)N[C@H](C(=O)O)C(C)C)C(C)C`: 20700 nM. Molecule `CSCC[C@H](N)C(=O)N[C@@H](CCC(=O)O)C(=O)N[C@@H](Cc1c[nH]cn1)C(=O)N[C@@H](CC(C)C)C(=O)N[C@@H](CCCNC(=N)N)C(=O)N[C@@H](CCC(=O)O)C(=O)N[C@H](C(=O)N[C@@H](CCCNC(=N)N)C(=O)N[C@@H](C)C(=O)N[C@H](C(=O)N[C@H](C(=O)O)[C@@H](C)O)C(C)C)C(C)C` yielded an IC50 on HLA-B*4001 (B*4001) of 3610 nM.

As to `CC(C)C[C@H](NC(=O)[C@H](CCC(=O)O)NC(=O)[C@@H](N)CC(N)=O)C(=O)N[C@@H](CO)C(=O)N[C@H](C(=O)N[C@@H](CC(=O)O)C(=O)N[C@@H](Cc1c[nH]cn1)C(=O)N[C@@H](CO)C(=O)N[C@@H](CC(=O)O)C(=O)N1CCC[C@H]1C(=O)N[C@H](C(=O)O)C(C)C)C(C)C`, the IC50 against HLA-B*4001 (B*4001) was 2550 nM.

Consider `CC(C)C[C@H](NC(=O)[C@H](Cc1ccc(O)cc1)NC(=O)[C@H](CCC(=O)O)NC(=O)[C@@H]1CCCN1)C(=O)N[C@H](C(=O)N1CCC[C@H]1C(=O)N[C@@H](CCC(N)=O)C(=O)NCC(=O)NCC(=O)N[C@@H](C)C(=O)N[C@@H](C)C(=O)O)[C@@H](C)O`, for which the IC50 on HLA-B*4402 (B*4402) was over 17800 nM; at HLA-B*4001 (B*4001), 41000 nM. The corresponding values for `C[C@H](NC(=O)[C@H](C)NC(=O)[C@H](CCC(=O)O)NC(=O)[C@@H](N)CCC(N)=O)C(=O)N[C@@H](CO)C(=O)N[C@@H](CO)C(=O)N[C@@H](CO)C(=O)N[C@@H](CO)C(=O)N[C@H](C(=O)O)[C@@H](C)O` are 9590 nM and 23500 nM. As for `CSCC[C@H](NC(=O)[C@H](CCCNC(=N)N)NC(=O)[C@@H]1CCCN1C(=O)CNC(=O)[C@H](CCC(=O)O)NC(=O)[C@H](CCC(=O)O)NC(=O)[C@H](CCC(=O)O)NC(=O)[C@@H](N)CCC(N)=O)C(=O)N[C@@H](Cc1ccccc1)C(=O)O`, the IC50 at HLA-B*4001 (B*4001) came to 918 nM. The same measure, in the same setting: next, `CC(C)[C@H](NC(=O)[C@H](CCC(=O)O)NC(=O)[C@@H](N)CCC(N)=O)C(=O)N[C@H](C(=O)N[C@@H](C)C(=O)N[C@@H](CCC(=O)O)C(=O)N[C@@H](CC(=O)O)C(=O)NCC(=O)N[C@H](C(=O)O)[C@@H](C)O)[C@@H](C)O`: 31100 nM.

The molecule `CSCC[C@H](NC(=O)[C@H](CCCNC(=N)N)NC(=O)[C@H](CO)NC(=O)[C@H](Cc1ccccc1)NC(=O)[C@H](CCC(=O)O)NC(=O)[C@H](CO)NC(=O)[C@@H](NC(=O)[C@H](CC(C)C)NC(=O)[C@H](CCC(=O)O)NC(=O)[C@@H](N)CCCNC(=N)N)C(C)C)C(=O)N[C@@H](C)C(=O)O` gave an IC50 at HLA-B*4001 (B*4001) of 389 nM. On the same count and under the same terms, for `CSCC[C@H](NC(=O)[C@H](CCC(=O)O)NC(=O)[C@H](C)NC(=O)[C@H](CCCCN)NC(=O)[C@@H](NC(=O)[C@@H](NC(=O)[C@@H]1CCCN1C(=O)[C@H](CCC(=O)O)NC(=O)[C@@H](N)CCCNC(=N)N)C(C)C)[C@@H](C)O)C(=O)O` the value was 373 nM. `CC(C)C[C@H](NC(=O)[C@@H](NC(=O)[C@H](CCCCN)NC(=O)[C@@H](NC(=O)[C@H](CCCCN)NC(=O)[C@H](CCCNC(=N)N)NC(=O)[C@H](CC(C)C)NC(=O)[C@H](CCC(=O)O)NC(=O)[C@@H](N)[C@@H](C)O)C(C)C)C(C)C)C(=O)O` showed an IC50 on HLA-B*4002 (B*4002) of 54 nM. At HLA-B*4001 (B*4001), `CC(C)C[C@H](NC(=O)[C@H](CCC(=O)O)NC(=O)[C@@H](N)[C@@H](C)O)C(=O)N[C@@H](CCCNC(=N)N)C(=O)N[C@@H](CCCCN)C(=O)N[C@H](C(=O)N[C@@H](CCCCN)C(=O)N[C@H](C(=O)N[C@@H](CC(C)C)C(=O)NCC(=O)O)C(C)C)C(C)C` registered an IC50 of 20300 nM. With `CC(C)C[C@H](NC(=O)[C@@H](NC(=O)[C@@H](NC(=O)[C@H](CCC(=O)O)NC(=O)[C@@H](N)C(C)C)C(C)C)[C@@H](C)O)C(=O)NCC(=O)N[C@@H](CCC(=O)O)C(=O)N[C@H](C(=O)N1CCC[C@H]1C(=O)N[C@@H](C)C(=O)N[C@@H](C)C(=O)O)C(C)C`, the IC50 against HLA-B*4402 (B*4402) is over 23500 nM; against HLA-B*4001 (B*4001), 25200 nM.

`CC[C@H](C)[C@H](NC(=O)CNC(=O)[C@H](CS)NC(=O)[C@H](CCC(=O)O)NC(=O)[C@@H](N)Cc1ccc(O)cc1)C(=O)N[C@@H](CCC(N)=O)C(=O)N[C@@H](CC(N)=O)C(=O)N[C@@H](CCC(=O)O)C(=O)N[C@@H](CC(C)C)C(=O)N[C@@H](CO)C(=O)N[C@H](C(=O)O)C(C)C` came in with an IC50 against HLA-B*4001 (B*4001) of 33 nM.

As to `CC(C)C[C@H](NC(=O)[C@H](Cc1ccccc1)NC(=O)[C@H](CCC(=O)O)NC(=O)[C@@H](N)Cc1ccc(O)cc1)C(=O)N[C@@H](Cc1c[nH]c2ccccc12)C(=O)NCC(=O)N1CCC[C@H]1C(=O)N[C@@H](CCCNC(=N)N)C(=O)N[C@@H](C)C(=O)O`, the IC50 against HLA-B*4402 (B*4402) came to 2350 nM; against HLA-B*4001 (B*4001) it was 249 nM. For HEQCAAGCT, the IC50 on HLA-B*4402 (read-out: B*4402) came to 19000 nM; at HLA-B*4001 (read-out: B*4001), 42200 nM.
